PubChem BioAssay AID639 (Emory University Molecular Libraries Screening Center, 2007)
The entries are a selection whose mix differs from that of the whole data set. Some tests of the compounds listed are not included; inactive here does not mean inactive elsewhere. Active and inactive are the calls of the source. Cut-off read from the data, not from the text of the source: active = activity above about 200%; inactive = the rest.

Protein sequences, listed by entry. Tags and fused reporters are not part of them.
UniProt P03372, whole entry: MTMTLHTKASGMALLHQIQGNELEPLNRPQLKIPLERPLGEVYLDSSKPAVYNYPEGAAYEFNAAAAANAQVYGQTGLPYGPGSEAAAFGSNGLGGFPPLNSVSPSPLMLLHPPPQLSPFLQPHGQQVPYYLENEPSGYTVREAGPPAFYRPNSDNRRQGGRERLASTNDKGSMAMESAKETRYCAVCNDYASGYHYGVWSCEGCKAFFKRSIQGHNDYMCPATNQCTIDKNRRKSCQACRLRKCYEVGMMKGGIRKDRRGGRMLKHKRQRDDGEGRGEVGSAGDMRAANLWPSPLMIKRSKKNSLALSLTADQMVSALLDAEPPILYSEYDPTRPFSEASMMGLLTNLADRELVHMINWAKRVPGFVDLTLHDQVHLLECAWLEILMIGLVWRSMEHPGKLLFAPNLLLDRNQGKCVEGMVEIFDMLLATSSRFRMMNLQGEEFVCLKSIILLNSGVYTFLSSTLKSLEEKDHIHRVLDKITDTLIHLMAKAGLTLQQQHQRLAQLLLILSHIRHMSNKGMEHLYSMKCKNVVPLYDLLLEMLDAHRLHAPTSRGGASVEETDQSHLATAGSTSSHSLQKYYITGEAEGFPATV

Molecular target: Estrogen receptor (Homo sapiens) (UniProt P03372)
Experiment: ERα coactivator recruitment potentiators – biochemical, TR-FRET, ERα LBD, low estradiol, primary screen (AID 639);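 note: binding measured in presence of low estradiol as agonist stimulus; 0% = peptide alone without receptor and 100% = receptor with peptide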
Details: TR-FRET ERalpha-LBD/SRC-Cy5 coactivator binding, 2 h; at 25.6 µM; active compounds read high; 100 = basal binding, no effect

Question: For `CN(C)c1cccc(C(=O)NCC2(N(C)C)CCCCC2)c1`, which coactivator binding (% of control) is on record?
Answer: inactive: 107%

Question: How did the coactivator binding (% of control) turn out when `O=C(OC1CN2CCC1CC2)C(CO)(c1ccccc1)c1ccccc1` (configuration not stated) was run?
Answer: inactive: 121%
